The text below walks through data of PMC8548882, “The Trp-rich Antimicrobial Amphiphiles With Intramolecular Aromatic Interactions for the Treatment of Bacterial Infection” (Frontiers in Microbiology, 2021).

In general, IC50 refers to the concentration that gives 50% inhibition.

The subject of one assay is HEK 293T cells. The class given is cell-based, human. To be noted: MTT, 24h, tested 2–128μM. On the procedure:
(§1) The MTT (3-[4,5 dimethylthiozol-2-yl]-2,5-diphenylterazoliumbromide) dye was selected to analyze the cytotoxicity of peptides against the murine macrophage cell RAW 264.7 (National Collection of Authenticated Cell Cultures, Shanghai, China), human embryonic kidneys (HK293T), and the porcine intestinal epithelial cells (IPEC-J2) as in our previously study ([Li et al., 2020]). In short, the cells (10^4 cells/well) were seeded into 96-well plates and were cultivated overnight. Then the peptides with different final concentration (2μM, 4μM, 8μM, 16μM, 32μM, 64μM, and 128μM) were introduced into the plate and challenged with cells for 24h. After overnight incubation, the 50μl MTT (0.5mg/ml) was added into the cell cultures for 4h. Then the plate was centrifuged to discard the supernatants and obtain the formazan crystals. The DMSO (dimethyl sulfoxide) was employed as a solvent to dissolve the formazan crystals on the bottom of the plate and the optical density was read at 492nm with a microplate reader.

In a further assay the test system is RAW 264.7 cells. The class given is cell-based, murine. To be noted: 24h. As for the experimental part:
as §1

Turning to `CC[C@H](C)[C@H](NC(=O)CN)C(=O)NCC(=O)N[C@@H](C)C(=O)N[C@H](C(=O)N[C@@H](CC(C)C)C(=O)N[C@@H](CCCCN)C(=O)N[C@H](C(=O)N[C@@H](CC(C)C)C(=O)N[C@H](C(=O)N[C@H](C(=O)NCC(=O)N[C@@H](CC(C)C)C(=O)N1CCC[C@H]1C(=O)N[C@@H](C)C(=O)N[C@@H](CC(C)C)C(=O)N[C@H](C(=O)N[C@@H](CO)C(=O)N[C@@H](Cc1c[nH]c2ccccc12)C(=O)N[C@H](C(=O)N[C@@H](CCCCN)C(=O)N[C@@H](CCCNC(=N)N)C(=O)N[C@@H](CCCCN)C(=O)N[C@@H](CCCNC(=N)N)C(=O)N[C@@H](CCC(N)=O)C(=O)N[C@@H](CCC(N)=O)C(N)=O)[C@@H](C)CC)[C@@H](C)CC)[C@@H](C)O)[C@@H](C)O)C(C)C)C(C)C` [Melittin, reference compound], the IC50 in the assay on HEK 293T cells came to 5.38 µM; in the assay with RAW 264.7 cells (RAW264.7, MTT, tested 2–128μM) it was 3.79 µM. In addition, in the assay with RAW 264.7 cells (RAW 264.7, MTT, 32μM), the cell viability result was “below 5%”.
